Values of other authors in patent US20090305995A1, “AGONISTS AND ANTAGONISTS OF THE SOMATOSTATIN RECEPTOR” (Novartis AG, priority 2004, published 2009).

Chains of the proteins cited; added tags and fusions are not shown.
UniProt P31391, whole entry: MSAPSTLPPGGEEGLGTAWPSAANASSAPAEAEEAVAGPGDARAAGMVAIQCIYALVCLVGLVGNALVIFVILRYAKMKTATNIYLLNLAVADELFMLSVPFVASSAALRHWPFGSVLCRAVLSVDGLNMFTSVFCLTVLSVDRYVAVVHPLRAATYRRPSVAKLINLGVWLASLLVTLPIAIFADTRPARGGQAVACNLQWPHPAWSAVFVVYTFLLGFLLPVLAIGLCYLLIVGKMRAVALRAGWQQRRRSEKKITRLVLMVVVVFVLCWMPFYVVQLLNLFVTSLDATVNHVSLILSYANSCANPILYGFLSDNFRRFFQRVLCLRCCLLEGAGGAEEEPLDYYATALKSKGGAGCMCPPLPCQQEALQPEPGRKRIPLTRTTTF

Key:
[1] = target: sst4 receptor (Homo sapiens, UniProt P31391); details: literature value; cited from earlier work
[2] = tested on: secretion of growth hormone, insulin or glucagon; details: literature (Rohrer et al. 1998); cited from earlier work

Structure (SMILES): COC(=O)[C@H](CCCNC(=N)N)NC(=O)CCCc1c(-c2ccccc2)[nH]c2c(F)cc(F)cc12
- Kd [1]: 0.7 nM
- inhibition of secretion of growth hormone, insulin or glucagon [2]: did not inhibit
